Values of other authors, collected in patent US20140171466A1, “PAIN MANAGEMENT IN SICKLE CELL ANEMIA” (priority 2012, published 2014).

Test system: mu-, κ-, δ-, and nociceptin-opioid receptors

CO[C@]12CC[C@@]3(C[C@@H]1C(C)(O)C(C)(C)C)[C@H]1Cc4ccc(O)c5c4[C@@]3(CCN1CC1CC1)C2O5 (stereo partly drawn) [Compound 14, [5α,7α(S)]-17-(cyclopropylmethyl)-α-(1,1-dimethylethyl)-4,5-epoxy-18,19-dihydro-3-hydroxy-6-methoxy-α-methyl-6,14-ethenomorphinan-7-methanol, hydrochloride]
affinity to opioid receptor subtypes: high affinity

Where a name gives a salt, the structure may show the parent alone.
